Biological target: the molecule itself
Test: AUC; sedimentation velocity, Hfq72 with 'AA0' RNA, 33 µM, 20 °C, 45 000 rpm, AUC-buffer (0.25 M NaCl, 0.02 M Hepes pH 8.0, 0.005 M MgCl2, 2% Glycerol), absorbance at 254 nm

B1: Escherichia coli Hfq72 (containing amino acids 1–72) (domain or fragment, UniProt P0A6X3 1-72, looked up)
chain: MAKGQSLQDPFLNALRRERVPVSIYLVNGIKLQGQIESFDQFVILLKNTVSQMVYKHAISTVVPSRPVSHHS
notes: RNA chaperone Hfq, Escherichia coli, amino acids 1-72 (lacks most of the intrinsically disordered C-terminal tail); Homo-hexameric ring; in the crystal and in the AUC sample with 'AA0' it carried RNA; also called Hfq72 hexamer; Hfq72_(6); source: E. coli BL21(DE3), purified (Ni-Sepharose, SenP2 cleavage, second Ni purification, Superdex 200)
- stoichiometry N: 6

Source: article PMC5575007, “Intermolecular base stacking mediates RNA-RNA interaction in a crystal structure of the RNA chaperone Hfq” (Scientific Reports, 2017)
